Assay results reported in patent EP2132185B1, “PYRIMIDINYL-PIPERAZINES USEFUL AS DOPAMINE D3/D2 RECEPTOR LIGANDS” (Richter Gedeon Nyrt., priority 2007, dated 2008).

Protein sequences, listed by entry. Tags and fused reporters are not part of them.
UniProt P61169, whole entry: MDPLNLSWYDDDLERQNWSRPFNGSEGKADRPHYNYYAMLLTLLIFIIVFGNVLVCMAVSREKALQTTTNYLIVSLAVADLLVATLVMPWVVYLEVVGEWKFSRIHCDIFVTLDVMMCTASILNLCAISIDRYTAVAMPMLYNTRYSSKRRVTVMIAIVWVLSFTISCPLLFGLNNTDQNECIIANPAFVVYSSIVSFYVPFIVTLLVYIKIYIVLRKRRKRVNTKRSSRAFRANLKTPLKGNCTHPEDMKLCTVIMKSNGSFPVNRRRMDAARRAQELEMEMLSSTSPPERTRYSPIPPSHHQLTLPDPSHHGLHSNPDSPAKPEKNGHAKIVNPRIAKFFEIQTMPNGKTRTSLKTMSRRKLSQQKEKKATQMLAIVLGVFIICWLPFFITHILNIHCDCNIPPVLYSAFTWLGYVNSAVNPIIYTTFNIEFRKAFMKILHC

Molecular target: T1, D2 receptor (Rattus norvegicus, UniProt P61169)
T1 construct: on rat brain striatal membrane preparation; from tissue; host or cells: rat brain striatum membranes
Experiment: D2 receptor binding ([3H]spiperone, rat brain striatal membrane preparation)

D2 Sel. (D2/D3 selectivity, i.e., Ki for D2 receptor divided by Ki for D3 receptor): 7
SMILES: CNc1nc(Cl)c(Cl)c(N2CCN(CC[C@H]3CC[C@H](NC(=O)N4CCOCC4)CC3)CC2)n1 [Compound 7, trans-morpholine-4-carboxylic acid (4-{2-[4-(5,6-dichloro-2-methylamino-pyrimidin-4-yl)-piperazin-1-yl]-ethyl}-cyclohexyl)-amide]
